## Apparent affinities of Ab-14 variants for a coronavirus HR2 peptide

The measurements come from Engelhart et al. 2022 (doi:10.1038/s41597-022-01779-4) through the FLAb antibody collection.

Binding partner: SARS-CoV-2 spike HR2 peptide, sequence PDVDLGDISGINAS.

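Variants in AAYL50 differ from the parent at up to three CDR positions; double and triple changes were sampled at random. The assay is AlphaSeq: two haploid yeast populations carry antibody and antigen on their surface. After mating in shaken culture at 30 °C for 16 h, diploids were selected and their barcode pairs sequenced. Read counts were normalised to the haploid input and turned into Kd by a linear fit to BCL2-family pairs of known affinity, for each replicate. Mating was done three times.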

Ab-14 is the parent antibody, in scFv form: VH, then a (GGGGS)3 linker, then VL. The heavy chain is unchanged in all variants.
VH: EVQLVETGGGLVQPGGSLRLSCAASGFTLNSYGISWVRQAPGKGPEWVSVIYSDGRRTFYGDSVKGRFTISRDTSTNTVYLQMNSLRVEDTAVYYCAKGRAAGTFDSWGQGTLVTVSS
VL: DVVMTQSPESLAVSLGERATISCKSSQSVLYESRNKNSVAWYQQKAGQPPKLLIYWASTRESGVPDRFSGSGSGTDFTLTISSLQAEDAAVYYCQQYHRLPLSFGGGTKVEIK

Each variant is given by its three light chain CDRs, as the data file delimits them; those of the parent are KSSQSVLYESRNKNSVA, WASTRES, QQYHRLPLS.
Scale: log10 of Kd in nM, estimated from mating counts; low values are strong binders.
Replicates are averaged; those with no signal do not enter the mean.
Where no diploid with the target was found in that replicate, the entry reads "nd": below detection, most likely a poor binder, though not proof of it.
For reference, the parent read 0.65 as the reference entry and 1.68 as a member of this library.

CDR-L1 | CDR-L2 | CDR-L3 | log10 Kd (nM) by replicate | mean log10 Kd (nM) | empty controls
KSYQSVLYESRNKNSVA | WASKREV | QQYHRLPLS | nd 2.21 nd | 2.21 | 1 of 9 (3.56)
KSSQSVLYESRNKNSVA | WASTRES | QQYHYLPWS | nd 3.46 nd | 3.46 | 0 of 9
KSSQSVLCESRNKNSVA | WASTRES | QQYHGLILS | 3.07 2.48 2.67 | 2.74 | 3 of 9 (2.92)
KCYQSVLYEMRNKNSVA | WASTRES | QQYHRLPLS | 3.63 2.50 4.20 | 3.45 | 0 of 9
KSSQSVLYESRNVNSVA | KAWTRES | QQYHRLPLS | 1.11 1.00 1.02 | 1.04 | 1 of 9 (4.08)
KSSQSVLYESNNKNSVW | WASTREF | QQYHRLPLS | nd nd nd | nd | 0 of 9
KSGQSVLYESRNKNSVA | WASQRES | QIYHRLPLS | nd 2.71 3.24 | 2.97 | 0 of 9
KSSQSVLPESRNKNSAA | WASTRES | QQYHRLPLN | nd nd nd | nd | 0 of 9
KSSQSVCYESTNKNSVA | WASVRES | QQYHRLPLS | 1.84 2.39 2.32 | 2.18 | 4 of 9 (4.45)
KSSQSVLYYSRNVNSVA | WASTRES | YQYHRLPLS | 2.47 2.21 2.36 | 2.35 | 2 of 9 (4.26)
KSSQSVLYNSRNKASVA | WASTRES | QQYHRLPLS | 2.72 nd nd | 2.72 | 0 of 9
KSSQSVLYESRFKNSVA | WASTRES | NQYHRLPLC | 1.32 1.59 1.74 | 1.55 | 0 of 9
KSSQSVLYESRNKNSPA | WASTRNS | QQNHRLPLS | nd nd 3.82 | 3.82 | 4 of 9 (4.19)
CSSQSVLYESCNKNEVA | WASTRES | QQYHRLPLS | nd 4.85 4.00 | 4.42 | 5 of 9 (4.88)
KSLMSVWYESRNKNSVA | WASTRES | QQYHRLPLS | 1.80 nd nd | 1.80 | 0 of 9
ESQQSVLYESRNKNAVA | WASTRES | QQYHRLPLS | 1.02 1.21 1.15 | 1.13 | 2 of 9 (4.62)
KSSQSVLYESRNKNSQA | WASTRES | QMYHRLRLS | 5.38 5.22 nd | 5.30 | 5 of 9 (4.83)
KSSWGVLYESRNKNSVA | WASTRES | QQYHRLPLS | 1.74 1.81 1.63 | 1.73 | 0 of 9
KSSQNILYESRNKNSVA | WASTRES | QQYKRLPLS | 1.31 1.69 1.53 | 1.51 | 2 of 9 (4.21)
KSSQSVLYEDRNKNSVA | WAKTRES | HQYHRLPLS | nd 4.87 nd | 4.87 | 2 of 9 (3.72)
KSSQSVLYESINKNSVA | WASSRES | QQYHRYPLS | 1.61 1.68 1.80 | 1.70 | 3 of 9 (4.52)
KSSQSPLYESRNKGSVA | WASTRLS | QQYHRLPLS | nd nd nd | nd | 1 of 9 (2.43)
KSSQSVCYESRNKNSVA | WASDRES | QQYHRLPLS | 1.40 1.49 1.53 | 1.48 | 1 of 9 (4.58)
KSSQSVLYVSRRKCSVA | WASTRES | QQYHRLPLS | 4.63 nd nd | 4.63 | 2 of 9 (4.12)
KSSQSVLYESRNKNMVA | WASTRFR | QQYHRLPLS | nd 3.20 3.75 | 3.48 | 1 of 9 (4.25)
KSSQSVLYESRNKNSVD | NASTRES | QQYHPLPLS | 6.39 nd 5.86 | 6.12 | 4 of 9 (4.61)
KSSDSVLYESRNKNSVA | IASTRES | QQDHRLPLS | nd 2.96 4.32 | 3.64 | 2 of 9 (3.08)
KSSQSVLSCSRNKNSVA | WASTRES | QQYHRLPLE | nd 4.25 nd | 4.25 | 1 of 9 (5.05)
KSSQSVLYESRNKNSVA | WASMEES | QQYHRLPLS | nd nd nd | nd | 0 of 9
KSSQSVLYESRNKGSLA | WASTRED | QQYHRLPLS | 1.95 1.94 2.23 | 2.04 | 8 of 9 (4.44)
KSSQSVLYESRNFNSVA | WASTGEM | QQYHRLPLS | nd nd nd | nd | 3 of 9 (4.19)
KSSQSVLYESRNKGGVA | WAGTRES | QQYHRLPLS | nd 4.09 4.09 | 4.09 | 0 of 9
KFSQSVLYESRNKNSPA | WASTRMS | QQYHRLPLS | nd 3.21 nd | 3.21 | 1 of 9 (3.38)
KSSQSVLYESRNKNKVA | WASTRES | QEYHRLPLS | nd nd 4.49 | 4.49 | 1 of 9 (2.62)
KSSQHVLYESRNKNSVA | WASTRES | QQYHRLKLS | 5.14 3.98 nd | 4.56 | 4 of 9 (4.38)
KSSQSVLYHIRNKNSVA | WASTRES | QQYQRLPLS | 4.65 5.30 6.13 | 5.36 | 9 of 9 (5.07)
KSSQSVLYESRNKLSVA | VASTRES | QQYHRLPNS | nd nd nd | nd | 0 of 9

Top 4 of the variants detected in all replicates, tightest first:

| CDR-L1 | CDR-L2 | CDR-L3 | log10 Kd (nM) by replicate | mean log10 Kd (nM) | empty controls |
|---|---|---|---|---|---|
| KSSQSVLYESRNVNSVA | KAWTRES | QQYHRLPLS | 1.11 1.00 1.02 | 1.04 | 1 of 9 (4.08) |
| ESQQSVLYESRNKNAVA | WASTRES | QQYHRLPLS | 1.02 1.21 1.15 | 1.13 | 2 of 9 (4.62) |
| KSSQSVCYESRNKNSVA | WASDRES | QQYHRLPLS | 1.40 1.49 1.53 | 1.48 | 1 of 9 (4.58) |
| KSSQNILYESRNKNSVA | WASTRES | QQYKRLPLS | 1.31 1.69 1.53 | 1.51 | 2 of 9 (4.21) |

Background: pairings of library AAYL50 with three empty control strains gave a value in 18% of cases (median 4.19, 5th percentile 2.99). Values in that range, when seen in few replicates, are hard to tell from nonspecific mating. For each scFv, signals with the empty controls are counted beside the result, with their mean in brackets.